Among the data in paper PMC3769975 (ChemMedChem, 2012) are EC50 values, retold here.

The target in this assay is recombinant neuraminidase N1 (A/California/04/09) (Influenza A virus (A/California/04/2009(H1N1)), UniProt C3W5S3). Nature of the assay: Fluorescent neuraminidase assay. It counts as biochemical, influenza A/California/04/09.

`CC(=O)N[C@H]1[C@H]([C@H](O)[C@H](O)CO)OC(C(=O)O)=C[C@@H]1N=C(N)N` [zanamivir, reference compound]: the concentration for a half-maximal effect (EC50) turned out to be 3.4 nM.

A word on the EC50: it is the concentration needed to bring the measured effect to its halfway point.
